# In patent publication US20200123214A1 (published 2020):
# Target: hCD40L-Fc
# Assay: Octet BLI
binder,measurement,value
hCD40-his (receptor) EPPTACREKQYLINSQCCSLCQPGQKLVSDCTEFTETECLPCGESEFLDTWNRETHCHQHKYCDPNLGLRVQQKGTSETDTICTCEEGWHCTSEACESCVLHRSCSPGFGVKQIATGVSDTICEPCPVGFFSNVSSAFEKCHPWTSCETKDLVVQQAGTNKTDVVCGPQDRLR,Kd,2.42 nM
